Values of other authors as cited in patent publication US20160271257A1, “Low Molecular Weight Immune-Modulators As Adjuvants for Specific Immunotherapy” (PLS-DESIGN GMBH, priority 2013, published 2016).

Target: T1, C5aR (Homo sapiens, UniProt P21730)
T1 construct: endogenous in cells; host or cells: human subjects (cited from Kohl, 2006)
T1 sequence (P21730 1-350): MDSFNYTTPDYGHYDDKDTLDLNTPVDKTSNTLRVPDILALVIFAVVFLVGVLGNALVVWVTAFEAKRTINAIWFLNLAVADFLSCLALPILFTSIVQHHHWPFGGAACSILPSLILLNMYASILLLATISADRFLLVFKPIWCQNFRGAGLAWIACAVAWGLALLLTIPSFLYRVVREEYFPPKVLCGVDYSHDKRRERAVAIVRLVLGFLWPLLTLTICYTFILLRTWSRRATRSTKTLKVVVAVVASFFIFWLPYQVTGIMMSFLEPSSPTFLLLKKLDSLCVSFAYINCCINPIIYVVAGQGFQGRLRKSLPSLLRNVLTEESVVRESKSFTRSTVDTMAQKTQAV
Details: Phase 1

Q: With Ac-Phe-[Orn-Pro-DCha-Trp-Arg] [PMX53] as the substance, how does the safety and tolerability read?
A: safe and well tolerated
